The target in this assay is T1, Dihydrofolate reductase (Pneumocystis carinii, UniProt P16184).
T1 sequence (P16184 whole entry): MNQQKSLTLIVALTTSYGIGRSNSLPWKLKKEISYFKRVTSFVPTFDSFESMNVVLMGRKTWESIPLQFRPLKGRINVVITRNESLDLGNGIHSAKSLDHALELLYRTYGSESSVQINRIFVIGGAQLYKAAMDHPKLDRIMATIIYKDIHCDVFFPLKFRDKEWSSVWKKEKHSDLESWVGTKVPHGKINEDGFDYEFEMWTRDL

For orientation: IC50 means the concentration that gives 50% inhibition. High values mean weaker potency, low ones greater potency.

On to `Nc1nc(N)c2c3c(oc2n1)CN(Cc1ccc(C(=O)N[C@@H](CCC(=O)O)C(=O)O)cc1)CC3`, for which the half-inhibitory concentration (IC50) stood at 10.9 µM.

(Values after ChEMBL document CHEMBL1131530, “Synthesis and biological activities of tricyclic conformationally restricted tetrahydropyrido annulated furo[2,3-d]pyrimidines as inhibitors of dihydrofolate reductases” (J Med Chem, 1998).)
